Data reported in article PMC7717712, “The effects of cardiac drugs on human erythrocyte carbonic anhydrase I and II isozymes” (Journal of Enzyme Inhibition and Medicinal Chemistry, 2020).

How the values were obtained:
[1] = biological target: T1, human carbonic anhydrase II (hCA II) (Homo sapiens, UniProt P00918); assay: CO2 hydratase activity assay (Maren method), hCA II; assay type: biochemical; details: enzyme purified from human erythrocytes
T1 construct: The packed erythrocytes were washed three times with 0.9% NaCl and then were hemolyzed in cold water; from tissue

[2] = biological target: T1, human carbonic anhydrase II (hCA II); assay: Esterase activity assay (4-nitrophenyl-acetate), hCA II; assay type: biochemical; details: esterase method, 348 nm, 25 °C

IC50 [1]: 246 µM
IC50 [2]: 58.3 µM
Structure (SMILES): CC(=O)Oc1ccccc1C(=O)O [Acetylsalicylic acid]
